Measured values reported in patent US6270979A (priority 1998, dated 2001).

Amino acid sequences for entries named in this document (tags omitted).
UniProt P35372, whole entry, looked up: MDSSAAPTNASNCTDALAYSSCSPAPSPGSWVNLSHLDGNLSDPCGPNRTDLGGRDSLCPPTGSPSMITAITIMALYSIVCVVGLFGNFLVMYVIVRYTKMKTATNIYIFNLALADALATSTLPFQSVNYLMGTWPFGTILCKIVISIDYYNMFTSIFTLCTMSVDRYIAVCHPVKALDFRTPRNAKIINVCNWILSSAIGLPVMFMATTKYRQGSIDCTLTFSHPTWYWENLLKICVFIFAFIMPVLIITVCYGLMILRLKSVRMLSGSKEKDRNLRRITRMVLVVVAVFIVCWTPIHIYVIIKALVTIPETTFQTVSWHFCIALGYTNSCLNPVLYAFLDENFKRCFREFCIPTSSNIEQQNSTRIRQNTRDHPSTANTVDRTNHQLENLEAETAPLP

Target: opioid μ receptor (Homo sapiens, UniProt P35372)

CO[C@]12CC[C@@]3(C[C@@H]1C(C)(C)O)[C@H]1Cc4ccc(O)c5c4[C@@]3(CCN1CC1CC1)[C@H]2O5
classification of opioid drug (agonist / neutral / negative antagonist) (morphine pretreated cells): negative antagonists | effect on cAMP levels / constitutive activity in morphine pretreated cells (morphine pretreated, drug-free dependent cells): increasing cAMP levels in drug-free dependent cells
